The list shows a part of the results, in another mix than the full data. Calls of active or inactive are those of the source.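 The calls were made as follows: active = activation above the mean of all tested compounds plus 3 SD, computed per campaign excluding outliers beyond control limits (cut at about 13% in these data); inactive = the rest.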

Sequences of proteins named here, by UniProt entry; tags and fusion partners are left off.
UniProt P49862, whole entry: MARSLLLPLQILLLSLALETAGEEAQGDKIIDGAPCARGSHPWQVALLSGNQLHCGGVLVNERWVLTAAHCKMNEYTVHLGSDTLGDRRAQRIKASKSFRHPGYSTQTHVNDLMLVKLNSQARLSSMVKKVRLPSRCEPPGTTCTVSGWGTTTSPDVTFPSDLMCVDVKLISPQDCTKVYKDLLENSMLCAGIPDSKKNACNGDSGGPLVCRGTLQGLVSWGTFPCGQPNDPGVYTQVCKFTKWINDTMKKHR

The target of the test is Kallikrein-7 (Homo sapiens) (UniProt P49862). The experiment in a line: proKLK7 zymogen activators, primary screen, biochemical, fluorescence intensity (AID 652039). Conditions: purified proKLK7, EDANS-DABCYL substrate fluorescence; at 7 µM; hits give high values; 100% is mature enzyme control, 0% vehicle.
As for `ClCCSc1nnc(-c2cccnc2)o1`, the activation was inactive: -0.12%.

These data come from PubChem BioAssay AID652039 (The Scripps Research Institute Molecular Screening Center, 2013).
